Test results from patent US5567692A, “9-[(substituted glycyl) amido)]-6-demethyl-6-deoxytetracyclines” (priority 1995, dated 1996).
Where a name gives a salt, the structure may show the parent alone.

Test system: S30 extract from derivative of MRE600 containing the tetM determinant, TetM modified ribosomes
Assay: E. coli in vitro protein translation system, Tet M S30
Conditions: for inhibition of protein synthesis occurring on tetM modified ribosomes (in words): coupled transcription and translation system

| Structure (SMILES) | % Inhibition Tet M S30 (Conc. 0.06 mg/ml) [%] | % Inhibition Tet M S30 (Conc. 1.0 mg/ml) [%] | inhibition of protein synthesis occurring on tetM modified ribosomes (in words) |
| --- | --- | --- | --- |
| CN(C)CC(=O)Nc1ccc2c(c1O)C(=O)C1=C(O)[C@]3(O)C(=O)C(C(N)=O)=C(O)[C@@H](N(C)C)C3CC1C2 (stereo partly drawn) [CC, [4S-(4alpha,12aalpha)]-4-(Dimethylamino)-9-[[(dimethylamino)acetyl]amino]-1,4,4a,5,5a,6,11,12a-octahydro-3,10,12,12a-tetrahydroxy-1,11-dioxo-2-naphthacenecarboxamide dihydrochloride] | 82 | 99 | effective |
| CCCCNCC(=O)Nc1ccc2c(c1O)C(=O)C1=C(O)[C@]3(O)C(=O)C(C(N)=O)=C(O)[C@@H](N(C)C)C3CC1C2 (stereo partly drawn) [H, [4S-(4alpha,12aalpha)]-9-[[(Butylamino)acetyl]amino]-4-(dimethylamino)-1,4,4a,5,5a,6,11,12a-octahydro-3,10,12,12a-tetrahydroxy-1,11-dioxo-2-naphthacenecarboxamide dihydrochloride] | 72 | 98 |  |
| CN(C)c1ccc(O)c2c1C[C@H]1C[C@H]3[C@H](N(C)C)C(O)=C(C(N)=O)C(=O)[C@@]3(O)C(O)=C1C2=O [U, Minocycline, reference compound] | 0 | 68 | not effective |
